Values of other authors, collected in patent US20050176641A1, “Long lasting natriuretic peptide derivatives” (CONJUCHEM, INC., priority 2000, published 2005).

Conditions: cited from earlier work

urodilatin
in vivo half-life: approximately 6 min
